Source: patent US20230192886A1 (published 2023)

Target: T1, PRAME (PRAME-004) peptide on HLA-A*02:01 (human)
T1 peptide: SLLQHLIGL
Test: cytokine release

- binding result: recognises
B1: R17P1G3 (TCR, V domains shown)
Valpha: QKEVEQNSGPLSVPEGAIASLNCTYSDRGSQSFFWYRQYSGKSPELIMSIYSNGDKEDGRFTAQLNKASQYVSLLIRDSQPSDSATYLCAVGPSGTYKYIFGTGTRLKVLA
Vbeta: EAQVTQNPRYLITVTGKKLTVTCSQNMNHEYMSWYRQDPGLGLRQIYYSMNVEVTDKGDVPEGYKVSRKEKRNFPLILESPSPNQTSLYFCASSPGGSGNEQFFGPGTRLTVL
